Results taken from ChEMBL document CHEMBL1240486, “Novel N-methylated 8-oxoisoguanines from Pacific sponges with diverse neuroactivities” (J Med Chem, 2010).

Sequences of proteins named here, by UniProt entry; tags and fusion partners are left off. A change or cut given only in a name is not applied to a line headed by its entry.
UniProt P14867: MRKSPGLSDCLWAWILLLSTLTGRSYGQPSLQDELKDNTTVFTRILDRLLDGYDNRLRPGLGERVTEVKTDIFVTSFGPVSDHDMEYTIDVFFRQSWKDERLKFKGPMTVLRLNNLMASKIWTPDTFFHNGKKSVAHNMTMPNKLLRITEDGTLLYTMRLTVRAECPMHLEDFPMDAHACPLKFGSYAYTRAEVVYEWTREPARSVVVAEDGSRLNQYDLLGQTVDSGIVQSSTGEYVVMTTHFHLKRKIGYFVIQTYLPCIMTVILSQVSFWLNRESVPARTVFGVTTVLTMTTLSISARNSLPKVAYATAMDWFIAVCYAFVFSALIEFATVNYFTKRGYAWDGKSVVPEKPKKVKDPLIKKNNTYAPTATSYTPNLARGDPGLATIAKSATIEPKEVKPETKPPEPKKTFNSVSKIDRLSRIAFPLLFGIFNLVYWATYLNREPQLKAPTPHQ
UniProt P18507: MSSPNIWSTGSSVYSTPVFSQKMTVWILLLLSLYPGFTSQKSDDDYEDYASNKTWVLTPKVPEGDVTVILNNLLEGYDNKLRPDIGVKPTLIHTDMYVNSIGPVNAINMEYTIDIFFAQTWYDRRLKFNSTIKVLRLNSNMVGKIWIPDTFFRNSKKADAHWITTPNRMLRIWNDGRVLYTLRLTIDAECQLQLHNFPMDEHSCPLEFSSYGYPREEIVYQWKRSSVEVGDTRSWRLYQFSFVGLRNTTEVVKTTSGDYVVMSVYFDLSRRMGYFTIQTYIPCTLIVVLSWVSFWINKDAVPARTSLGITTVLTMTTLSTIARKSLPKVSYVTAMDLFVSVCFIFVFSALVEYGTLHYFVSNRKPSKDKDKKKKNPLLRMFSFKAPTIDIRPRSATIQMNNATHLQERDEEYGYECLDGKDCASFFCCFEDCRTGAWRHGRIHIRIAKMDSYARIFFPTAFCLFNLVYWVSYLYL
UniProt P28472: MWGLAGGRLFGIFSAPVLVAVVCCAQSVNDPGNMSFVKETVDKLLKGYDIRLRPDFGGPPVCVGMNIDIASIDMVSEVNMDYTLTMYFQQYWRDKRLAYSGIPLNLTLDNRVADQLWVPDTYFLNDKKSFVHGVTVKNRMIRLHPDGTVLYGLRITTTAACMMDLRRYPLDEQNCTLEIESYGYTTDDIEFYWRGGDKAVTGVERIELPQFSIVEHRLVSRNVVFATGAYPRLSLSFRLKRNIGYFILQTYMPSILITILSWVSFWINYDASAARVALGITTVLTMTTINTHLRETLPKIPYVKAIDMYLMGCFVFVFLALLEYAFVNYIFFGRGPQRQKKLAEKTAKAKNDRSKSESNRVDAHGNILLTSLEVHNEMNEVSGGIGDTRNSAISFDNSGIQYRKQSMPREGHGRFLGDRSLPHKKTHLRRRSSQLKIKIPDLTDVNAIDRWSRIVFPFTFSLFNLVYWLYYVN

What was measured:
[1] = test system: Glutamate receptor ionotropic kainate 2 (GluK2); test: Antagonist activity at recombinant GluK2 receptor expressed in HEK 293-T/17 cells assessed as glutamate-induced current at 100 uM by whole-cell recording relative to control; design: scale not given: the % may be the effect or the level left; settings: HEK293
[2] = biological target: GABA-A receptor; alpha-1/beta-3/gamma-2 (Homo sapiens) (UniProt P14867+P18507+P28472); test: Antagonist activity at recombinant alpha-1-beta-3-gamma-2 L receptor expressed in HEK 293-T/17 cells assessed as GABA-induced current at 30 uM by whole-cell recording relative to control; assay type: functional, cell-based; design: scale not given: the % may be the effect or the level left; settings: HEK293

Cl.Cn1c(=O)[nH]c2c([nH]c(=O)n2C)c1=N
Activity [1]: 99% | Activity [2]: 99%
